Data: patent US20260382572A1, “TREATMENT OF FRONTOTEMPORAL DEMENTIA OR FRONTOTEMPORAL LOBAR DEMENTIA” (published 2026)
Values joined by “and” are separate entries in the source; they are usually repeats but may differ in a detail not shown here. Equal entries are not always repeated.

Legend:
[1] = PAMPA-BBB in vitro blood-brain barrier permeation assay; conditions: printed in brackets below Pe
From the text: The in vitro blood-brain barrier permeation assay (PAMPA-BBB) was used for predicting the brain penetration of compounds, following a described method [Herrera-Arozamena, Clara et al. “Resveratrol-Based MTDLs to Stimulate Defensive and Regenerative Pathways and Block Early Events in Neurodegenerative Cascades.” Journal of medicinal chemistry vol. 65, 6 (2022): 4727-4751. doi:10.1021/acs.jmedchem.lc01883]. The results are given as the mean±SD. In each experiment, 11 quality control standards of known BBB permeability were included to validate the analysis set.

[2] = LPS-induced sickness behaviour: body weight; conditions: 20 mg·kg^−1 i.p.; compared to LPS-vehicle treated animals
Method: (§1) FIG. 5. Sub-chronical Compound 1 administration improves behavioural parameters in LPS treated mice. Compound 1 (20 mg·kg^−1) was injected once a day via i.p. four days before the i.p. LPS (0.5 mg·kg^−1) administration, thereafter behavioural tests were conducted. (A) Mice weight change (T0 and T24: saline n=17, LPS n=17, LPS+Compound 1 n=19, T4 and T8 saline n=8, LPS n=7, LPS+Compound 1 n=8). (B) Locomotion activity measured by line crossings of an imaginary grid. (C) Scheme of NOR test. (D) Discrimination index (DI) of the mice studied: saline (n=16), LPS (n=9) and LPS+Compound 1 (n=13).
(§2) The LPS in vivo model was induced, sickness behaviour evaluated (locomotion test and novel object recognition test) and cytokines measured by qPCR as described by [Fernindez-Mendivil, Cristina et al. “Protective role of microglial HO-1 blockade in aging: Implication of iron metabolism.” Redox biology vol. 38 (2021): 101789. doi:10.1016/j.redox.2020.101789]. The panel of mouse cytokines, chemokines, and growth factors were measured by Luminex xMAP technology for multiplexed quantification at Evetechnologies (https://www.evetechnologies.com/)
(§3) Example 2.3.1. Treatment with Compound 1 reduces LPS-induced cytokine expression and release in mouse brain. […] Thereafter, behavioural, and biochemical outcomes were analysed at different time points.

LPS treated mice = assay: LPS-induced sickness behaviour: novel object recognition test; conditions: 20 mg·kg^−1 i.p.; compared to vehicle-LPS treated animals
Method: as §1, §2, §3

[3] = test system: hyperphosphorylated tau (hTauP301L); assay: hTauP301L FTD model, aged mice: hyperphosphorylated tau by immunofluorescence in hippocampus; conditions: 35 days
Method: FIG. 10. Compound 1 reduces hyperphosphorylated tau species and improves cognitive behaviour in aged (16-18 months old) mice with hTauP301L tauopathy after days oral administration (50 mg/kg/day). (A). Representative images of hyperphosphorylated tau intensity measured by AT8 and AT180 antibodies in three different regions of the hippocampus (GD, CA3 and CA1) (n=12). (B) Quantification AT8 intensity, normalized to CA3 intensity of Sham animals. (C) Quantification of AT180 intensity, normalized to CA3 intensity of Sham animals. (D) Experimental protocol of T-maze alternation test and (E) Object Location test (OLT). (F) Average of the percentage of success in seven independent attempts (n=6).
Immunofluorescence labelling in in vitro and in vivo samples was performed as described in [Luengo, Enrique et al. “Implication of type 4 NADPH oxidase (NOX4) in tauopathy.” Redox biology vol. 49 (2022): 102210. doi:10.1016/j.redox.2021.102210].
In vivo hTau301L model was induced by stereotaxic injection of AAV-hTauP301L (AAV-hTau) particles as described in [Luengo, Enrique et al. “Implication of type 4 NADPH oxidase (NOX4) in tauopathy.” Redox biology vol. 49 (2022): 102210. doi:10.1016/j.redox.2021.102210]. Control animals were injected with AAV-GFP. Evaluation of hyperphosphorylated tau in sarkosyl soluble and insoluble fractions; microgliosis; AT8 and AT180 by immunofluorescence; and cognitive test were performed as described previously [Luengo, Enrique et al. “Implication of type 4 NADPH oxidase (NOX4) in tauopathy.” Redox biology vol. 49 (2022): 102210. doi:10.1016/j.redox.2021.102210].
Oral administration of Compound 1 at different dosages (20 mg·kg^−1 and 50 mg·kg^−1) was administered embedded in gelatine. The compound was given in a mixture of 10% gelatine from porcine skin and 10% sucralose in water, heated in a microwave oven. […]
Example 2.6. […] 35 Days of treatment with a single oral dose of Compound 1 at 50 mg/kg reduced hyperphosphorylated tau levels induced by hTauP301L, measured by AT8 and AT180 antibodies in DG, CA3 and CA1 regions of the hippocampus (FIG. 10A-C). […]

[4] = Liver microsome stability, human; conditions: 1 μM, 120 min
From the text: (§4) Example 3.3. Stability in mouse, dog, and human liver microsomes. […] In this line, results in two different species correlated with human microsomes. […] This correlation is widely described for different drugs in which mouse metabolism is higher due to the high blood flow and quick metabolic status of mice.

[5] = Liver microsome stability, dog; conditions: dog liver microsomes
From the text: as §4

[6] = aged (16-18 months) mice, oral 50 mg/kg, DG, CA3 and CA1

SMILES: COc1ccc2c(c1)CC(c1c[nH]c3ccc(OC)cc13)N2 (stereo not drawn)
- PAMPA-BBB classification (cns+) [1]: (cns+)
- body weight loss [2]: less reduction of the body weight loss
- cognitive decline (NOR discrimination index) (LPS treated mice): did not show cognitive decline
- hyperphosphorylated tau levels, AT8 [3, 6]: reduced hyperphosphorylated tau levels
- hyperphosphorylated tau levels, AT180 [3, 6]: reduced hyperphosphorylated tau levels
- hyperphosphorylated tau (summary) ([3]; young and aged subjects, 50 mg/kg oral once a day): significant reduction of hyperphosphorylated tau
- stability in human liver microsomes (in words) [4]: good stability
- T1/2 ([4]; human liver microsomes): 13.07 min and 13.07 ± 1.15 min
- T1/2 [5]: 15.4 min and 15.4 ± 0.03 min
